## Yeast mating assay 1: variants of the scFv Ab-14

The measurements come from Engelhart et al. 2022 (doi:10.1038/s41597-022-01779-4) through the FLAb antibody collection.

Target: peptide PDVDLGDISGINAS, taken from heptad repeat 2 (HR2) of SARS-CoV-2 spike.

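Variants in AAYL49 differ from the parent at up to three CDR positions; double and triple changes were sampled at random. In AlphaSeq, yeast of one mating type display the scFv and yeast of the other type display the target. After mating in shaken culture at 30 °C for 16 h, diploids were selected and their barcode pairs sequenced. Read counts were normalised to the haploid input and turned into Kd by a linear fit to BCL2-family pairs of known affinity, for each replicate. Each pool was mated in three replicate cultures.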

The variants keep the light chain, the linker and the frameworks of Ab-14 (scFv order VH, the linker GGGGSGGGGSGGGGS, VL).
VH: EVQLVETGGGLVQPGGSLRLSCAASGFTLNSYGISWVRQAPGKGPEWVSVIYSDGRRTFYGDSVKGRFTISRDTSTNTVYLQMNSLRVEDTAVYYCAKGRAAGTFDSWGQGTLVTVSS
VL: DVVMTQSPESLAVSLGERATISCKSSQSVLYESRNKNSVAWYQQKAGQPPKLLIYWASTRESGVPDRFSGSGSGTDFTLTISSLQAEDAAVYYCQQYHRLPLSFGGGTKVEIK

Substitutions are numbered in sequence along the VH above, starting at 1 (not Kabat). Scale: log10 of Kd in nM, estimated from mating counts; low values are strong binders. Replicates are averaged; those with no signal do not enter the mean. "ND" marks a missing value. The strain was present, yet no cells mated with the target were sequenced in that replicate, which points to weak or no binding.

changes	replicates, log10 nM	log10 Kd (nM), mean	signal with controls
N30A+V50T+G61F	ND / ND / ND	ND	1/9 (4.12)
F27P+R56F+R57Q	6.55 / 4.39 / ND	5.47	4/9 (4.48)
D54S+K65Q+A102H	ND / 4.41 / ND	4.41	2/9 (3.62)
S35N+G55F+S63A	4.20 / 3.81 / 4.51	4.17	2/9 (4.13)
T28K+Y32G+S35I	ND / 2.84 / ND	2.84	1/9 (3.89)
L29W+S53R+A101T	ND / 3.19 / 5.14	4.16	2/9 (4.30)
A101E+A102E+G103Y	ND / ND / ND	ND	2/9 (3.45)
G26W+L29D+D106R	4.07 / 4.15 / ND	4.11	3/9 (4.90)
Y52M+F59Q+G61H	ND / ND / ND	ND	0/9
G55E+V64S+D106L	ND / 3.39 / ND	3.39	2/9 (3.75)
Y32V+R56K+V64G	3.69 / ND / ND	3.69	0/9
Y32L+G61N+G99D	4.56 / 5.32 / 4.84	4.90	7/9 (4.52)
G26W+R56S+R57A	ND / 4.88 / ND	4.88	4/9 (3.43)
I34A+V64Q+A102Q	ND / ND / ND	ND	3/9 (4.28)
T28W+A101P+G103V	ND / ND / ND	ND	3/9 (4.47)
Y32T+Y60G+D106R	ND / ND / ND	ND	2/9 (4.38)
F27D+V64S+K65F	ND / ND / ND	ND	0/9
L29D+S35P+G99Q	2.61 / 2.55 / 3.70	2.96	6/9 (4.34)
Y60G+K65N+S107Q	4.02 / ND / ND	4.02	1/9 (3.26)
S35G+V64A+F105C	ND / ND / ND	ND	1/9 (3.01)
S35H+R57N+D106H	ND / ND / ND	ND	1/9 (5.52)
I34P+G55D+S107T	ND / ND / ND	ND	0/9
R56Q+F59V+S63A	0.62 / 0.88 / 0.83	0.77	8/9 (5.10)
F27Q+K65F+T104F	3.71 / 3.34 / 3.03	3.36	5/9 (4.76)
A102F+G103A	ND / 4.02 / 3.28	3.65	3/9 (4.17)
L29C+Y52C+D62V	3.57 / ND / ND	3.57	2/9 (4.01)
G26V+S63N+K65M	ND / 3.81 / 3.29	3.55	1/9 (4.56)
R57L+A101N+F105Y	ND / ND / ND	ND	0/9
S31D+S35W+K65T	ND / ND / ND	ND	0/9
I34W+S35R+G61P	ND / ND / ND	ND	0/9
Y32G+F59S+T104C	4.37 / ND / ND	4.37	2/9 (3.53)
T28E+V50E+D106Q	ND / ND / ND	ND	1/9 (4.47)
I51H+G103N	ND / 4.52 / ND	4.52	0/9
G61S	0.53 / 0.70 / 0.56	0.59	3/9 (4.72)
T28N+R56N	ND / ND / ND	ND	0/9
I34G+R56W+T58C	ND / ND / ND	ND	0/9
F27L+T28A+T58E	3.64 / 3.34 / ND	3.49	1/9 (3.69)
S53L+R100N+G103D	ND / ND / ND	ND	3/9 (4.27)
I34P+R56E+A102D	ND / 4.17 / ND	4.17	2/9 (4.49)

The 6 strongest on average among those seen in every replicate, once more:

| changes | replicates, log10 nM | log10 Kd (nM), mean | signal with controls |
|---|---|---|---|
| G61S | 0.53 / 0.70 / 0.56 | 0.59 | 3/9 (4.72) |
| R56Q+F59V+S63A | 0.62 / 0.88 / 0.83 | 0.77 | 8/9 (5.10) |
| L29D+S35P+G99Q | 2.61 / 2.55 / 3.70 | 2.96 | 6/9 (4.34) |
| F27Q+K65F+T104F | 3.71 / 3.34 / 3.03 | 3.36 | 5/9 (4.76) |
| S35N+G55F+S63A | 4.20 / 3.81 / 4.51 | 4.17 | 2/9 (4.13) |
| Y32L+G61N+G99D | 4.56 / 5.32 / 4.84 | 4.90 | 7/9 (4.52) |

As a blank, each scFv also met three strains without target: over library AAYL49, 15% of these pairings were detected, typically at 4.06 and seldom below 2.83. For each scFv, signals with the empty controls are counted beside the result, with their mean in brackets.